Some compounds may have been tested in ways that are not shown here.
Experiments:
[1] = test system: trained and certified explosives detection canines; experiment: Canine field trials, active odor determination (odor line-up of hide boxes); conditions: for % Alert: Scratch Box
[2] = Permeation of odor compounds through 2.0 mil LDPE bags (gravimetric); conditions: gradient of mass loss over time
[3] = cited from earlier work
[4] = test system: previously trained explosive detection canines; experiment: First field test of silica TNT mimic aid, previously trained dogs (Table 91); conditions: 1.25 g 2,4-dinitrotoluene as 25 g silica COMPS TNT aid in 2.0 mil LDPE
[5] = Permeation of odor compounds through different polymer chemistries (gravimetric); conditions: 25.0 mg on gauze; LDPE 1.5-4.0 mil, polypropylene, cellophane, Kapak; 1 month
[6] = Table 52, 100 μl at 1000 ppm Acetonitrile on Cotton in LDPE, 6 canines
[7] = Table 53, 100 μl at 1000 ppm Acetonitrile on Cotton in Open Vial, 11 canines
[8] = Table 53 field experiment, 100 ug total

| Structure (SMILES) | % Alert [1, 6] [%] | % Alert [1, 7] [%] | permeation rate through LDPE [2] [pg/s] | Vapour Pressure at 25° C. [3] | other results |
| --- | --- | --- | --- | --- | --- |
| O=[N+]([O-])c1cccc([N+](=O)[O-])c1 | 50.0 | 27.3 | 117.4 |  | alerts (canines alerting / canines tested) [1, 8]: 3/11; interests (canines showing interest / canines tested) [1, 8]: 1/11; responses (canines responding / canines tested) ([1]; Table 54, 5.0 mg): 0/9 |
| O=[N+]([O-])OCC(CO[N+](=O)[O-])(CO[N+](=O)[O-])CO[N+](=O)[O-] |  |  |  | 1.4 × 10^−8 torr |  |
| Cc1c([N+](=O)[O-])cc([N+](=O)[O-])cc1[N+](=O)[O-] | 33.3 | 45.4 |  | 5.8 × 10^−6 torr | alerts (canines alerting / canines tested) ([1]; Table 54, 5.0 mg): 0/9 |
| O=[N+]([O-])c1cc([N+](=O)[O-])c(O)c([N+](=O)[O-])c1 |  |  |  | 5.8 × 10^−9 torr |  |
| Cc1ccc([N+](=O)[O-])cc1[N+](=O)[O-] | 50.0 | 9.1 | 80.36 |  | alerts (canines alerting / canines tested) [1, 8]: 1/11; interests (canines showing interest / canines tested) [1, 8]: 5/11; alerts (canines alerting / canines tested) ([1]; Table 54, 5.0 mg): 0/9; positive responses of canines ([1]; Table 64, 1.0 g): no positive responses; alerts (canines alerting / canines tested) [4]: 7/10; interests (canines showing interest / canines tested) [4]: 2/10; permeation through different polymers (qualitative) [5]: no noticeable difference in the rate of loss |
| O=[N+]([O-])OCCO[N+](=O)[O-] |  |  |  | 7.0 × 10^−2 torr |  |
| Cc1c([N+](=O)[O-])cccc1[N+](=O)[O-] |  |  | 155.6 |  |  |
| CN(c1c([N+](=O)[O-])cc([N+](=O)[O-])cc1[N+](=O)[O-])[N+](=O)[O-] |  |  |  | 5.7 × 10^−9 torr |  |

— US9706755B2, “Controlled odor mimic permeation system” (dated 2017)
